PMC2744598

Legend:
GST-hHR23A UBA1 (human) = experiment: SPR
GST-Ubc1 UBA (yeast) = experiment: SPR

Row | Substance | Kd (GST-hHR23A UBA1 (human)) | Kd (GST-Ubc1 UBA (yeast))
1 | K48-linked tetraubiquitin (from UniProt P0CG48 1-76) | 13 µM | –
2 | K48-linked diubiquitin (from UniProt P0CG48 1-76) | – | 460 µM
3 | K63-linked diubiquitin (from UniProt P0CG48 1-76) | – | 130 µM
